Source: patent publication EP4603105A1, “PHARMACEUTICAL COMPOSITION CONTAINING CYCLIC COMPOUND HAVING SELECTIVE KRAS INHIBITORY EFFECT AGAINST HRAS AND NRAS” (CHUGAI SEIYAKU KABUSHIKI KAISHA, priority 2022, dated 2024)

By UniProt entry, the sequences of proteins in these tests, tags left out.
UniProt P01112, whole entry: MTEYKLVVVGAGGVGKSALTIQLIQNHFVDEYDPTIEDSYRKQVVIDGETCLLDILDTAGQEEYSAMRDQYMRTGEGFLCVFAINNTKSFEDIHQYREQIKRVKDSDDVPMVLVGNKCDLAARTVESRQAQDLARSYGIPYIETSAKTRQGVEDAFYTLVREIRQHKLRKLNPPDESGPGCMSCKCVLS

Target: HRAS wild-type protein (Homo sapiens, UniProt P01112)
Experiment: Binding to HRAS by surface plasmon resonance (SPR), KD and KD ratio to KRAS
Details: ratio of KD for HRAS wild-type protein to KD for KRAS

Row | SMILES | HRAS /KRAS
1 | CCCOCC1C(=O)NC(C(C)OCC)C(=O)N(C)CC(=O)N(C)C2CC=CCCN(C2=O)C(Cc2ccc(C)cc2)C(=O)N(C)CC(=O)NC(CCc2cc(F)c(C(F)(F)F)c(F)c2)C(=O)N2CC(C)CC2C(=O)NC2(CC(C)(C)C2)C(=O)N(C)C(C2CCCC2)C(=O)N(C)C(C(=O)N(C)CC)CC(=O)N1C (stereo not shown) | A (a compound having 10 or more and less than 20 is denoted as A)
2 | CCCOC[C@H]1C(=O)N[C@@H]([C@@H](C)CC)C(=O)N2CCC[C@H]2C(=O)N(C)[C@H]2C/C=C\CCN(C2=O)[C@@H](CC2CCC(F)(F)CC2)C(=O)N(C)CC(=O)N[C@@H](CCc2ccc(C(F)(F)F)c(OC)c2)C(=O)N2C[C@H](OCC)C[C@H]2C(=O)N(C)C2(CCC2)C(=O)N(C)[C@@H](C2CCCC2)C(=O)N(C)[C@H](C(=O)N(C)C)CC(=O)N1C | B (a compound having 3 or more and less than 10 is denoted as B)

Same assay, conditions: ratio of KD with respect to HRAS wild-type protein to KD with respect to KRAS

Row | SMILES | HRAS /KRAS
3 | CCO[C@@H]1C[C@H]2C(=O)NC3(CCC3)C(=O)N(C)[C@@H](C3CCCC3)C(=O)N(C)[C@H](C(=O)N(C)C)CC(=O)N(C)[C@@H](CC3CCCC3)C(=O)N[C@@H]([C@@H](C)CC)C(=O)N(C)CC(=O)N(C)[C@H]3C/C=C\CCN(C3=O)[C@@H](Cc3ccc(C)cc3)C(=O)N(C)CC(=O)N[C@@H](CCc3cc(F)c(C(F)(F)F)c(F)c3)C(=O)N2C1 | B (a compound having 3 or more and less than 10 is denoted as B)
4 | CC[C@H](C)[C@@H]1NC(=O)[C@H](CC)N(C)C(=O)C[C@@H](C(=O)N(C)C)N(C)C(=O)[C@H](C2CCCC2)N(C)C(=O)C2(CCCC2)NC(=O)[C@@H]2CCCN2C(=O)[C@H](CCc2cc(F)c(C(F)(F)F)c(F)c2)NC(=O)CN(C)C(=O)[C@H](Cc2ccc(C(F)(F)F)cc2)N2C[C@H](C)[C@H](C)C[C@@H](C2=O)N(C)C(=O)CN(C)C1=O | B (a compound having 3 or more and less than 10 is denoted as B)
5 | CC[C@H](C)[C@@H]1NC(=O)[C@H](CC2CC2)N(C)C(=O)C[C@@H](C(=O)N2CCOCC2)N(C)C(=O)[C@H](C2CCCC2)N(C)C(=O)C2(CCCC2)NC(=O)[C@@H]2CCCN2C(=O)[C@H](CCc2ccc(C(F)(F)F)c(Cl)c2)NC(=O)CN(C)C(=O)[C@H](Cc2ccc(C(F)(F)F)cc2)N2C[C@H](C)CC[C@@H](C2=O)N(C)C(=O)CN(C)C1=O | B (a compound having 3 or more and less than 10 is denoted as B)
6 | CCO[C@@H]1C[C@H]2C(=O)NC3(CC(F)(F)C3)C(=O)N(C)[C@@H](C3CCCC3)C(=O)N(C)[C@H](C(=O)N(C)C)CC(=O)N(C)[C@@H](CC)C(=O)N[C@@H]([C@@H](C)CC)C(=O)N(C)CC(=O)N(C)[C@H]3C/C=C\CCN(C3=O)[C@@H](Cc3ccc(C(F)(F)F)cc3)C(=O)N(C)CC(=O)N[C@@H](CCc3cc(F)c(C(F)(F)F)c(F)c3)C(=O)N2C1 | A (a compound having 10 or more and less than 20 is denoted as A)
7 | CCO[C@@H]1C[C@H]2C(=O)NC3(CCC3)C(=O)N(C)[C@@H](C3CCCC3)C(=O)N(C)[C@H](C(=O)N(C)C)CC(=O)N(C)[C@@H](CC3CCC3)C(=O)N[C@@H]([C@@H](C)CC)C(=O)N(C)CC(=O)N(C)[C@H]3C/C=C\CCN(C3=O)[C@@H](CC3CCCCC3)C(=O)N(C)CC(=O)N[C@@H](CCc3cc(F)c(C(F)(F)F)c(F)c3)C(=O)N2C1 | A (a compound having 10 or more and less than 20 is denoted as A)
8 | CCO[C@@H]1C[C@H]2C(=O)NC3(CCC3)C(=O)N(C)[C@@H](C3CCCC3)C(=O)N(C)[C@H](C(=O)N3CCOCC3)CC(=O)N(C)[C@@H](CC(C)C)C(=O)N[C@@H]([C@@H](C)CC)C(=O)N(C)CC(=O)N(C)[C@H]3C/C=C\CCN(C3=O)[C@@H](Cc3ccc(C)cc3)C(=O)N(C)CC(=O)N[C@@H](CCc3cc(F)c(C(F)(F)F)c(F)c3)C(=O)N2C1 | A (a compound having 10 or more and less than 20 is denoted as A)
9 | CCO[C@@H]1C[C@H]2C(=O)NC3(CCC3)C(=O)N(C)[C@@H](C3CCCC3)C(=O)N(C)[C@H](C(=O)N3CCCC3)CC(=O)N(C)[C@@H](CC3CCCC3)C(=O)N[C@@H]([C@@H](C)CC)C(=O)N(C)CC(=O)N(C)[C@H]3C/C=C\CCN(C3=O)[C@@H](Cc3ccc(C)cc3)C(=O)N(C)CC(=O)N[C@@H](CCc3cc(F)c(C(F)(F)F)c(F)c3)C(=O)N2C1 | A (a compound having 10 or more and less than 20 is denoted as A)
10 | CCOC1CC2C(=O)NC3(CCC3)C(=O)N(C)C(C3CCCC3)C(=O)N(C)C(C(=O)N3CCCC3)CC(=O)N(C)C(CC3CCCCC3)C(=O)NC(C(C)CC)C(=O)N(C)CC(=O)N(C)C3CC=CCCN(C3=O)C(Cc3ccc(C(F)(F)F)cc3)C(=O)N(C)CC(=O)NC(CCc3cc(F)c(C(F)(F)F)c(F)c3)C(=O)N2C1 (stereo not shown) | A (a compound having 10 or more and less than 20 is denoted as A)
11 | C=CC[C@H]1C(=O)N[C@@H]([C@@H](C)CC)C(=O)N(C)CC(=O)N(C)[C@H]2C/C=C\CCN(C2=O)[C@@H](CC2CCCCC2)C(=O)N(C)CC(=O)N[C@@H](CCc2cc(F)c(C(F)(F)F)c(F)c2)C(=O)N2C[C@H](OCC)C[C@H]2C(=O)NC2(CCC2)C(=O)N(C)[C@@H](C2CCCC2)C(=O)N(C)[C@H](C(=O)N(C)C)CC(=O)N1C | A (a compound having 10 or more and less than 20 is denoted as A)
12 | CCO[C@@H]1C[C@H]2C(=O)NC3(CCC3)C(=O)N(C)[C@@H](C3CCCC3)C(=O)N(C)[C@H](C(=O)N(C)C)CC(=O)N(C)[C@@H](CC3CCCC3)C(=O)N[C@@H]([C@@H](C)CC)C(=O)N(C)CC(=O)N(C)[C@H]3C/C=C\CCN(C3=O)[C@@H](Cc3ccc(C)cc3)C(=O)N(C)CC(=O)N[C@@H](CCc3cc(F)c(Cl)c(F)c3)C(=O)N2C1 | A (a compound having 10 or more and less than 20 is denoted as A)
13 | CCO[C@@H]1C[C@H]2C(=O)NC3(CCC3)C(=O)N(C)[C@@H](C3CCCC3)C(=O)N(C)[C@H](C(=O)N3CCCC3)CC(=O)N(C)[C@@H](CC(C)C)C(=O)N[C@@H]([C@@H](C)CC)C(=O)N(C)CC(=O)N(C)[C@H]3C/C=C\CCN(C3=O)[C@@H](Cc3ccc(C)cc3)C(=O)N(C)CC(=O)N[C@@H](CCc3cc(F)c(C(F)(F)F)c(F)c3)C(=O)N2C1 | A (a compound having 10 or more and less than 20 is denoted as A)
14 | CCO[C@@H]1C[C@H]2C(=O)NC3(CCC3)C(=O)N(C)[C@@H](C3CCCC3)C(=O)N(C)[C@H](C(=O)N(C)C)CC(=O)N(C)[C@@H](CC(C)C)C(=O)N[C@@H]([C@@H](C)CC)C(=O)N(C)CC(=O)N(C)[C@H]3C/C=C\CCN(C3=O)[C@@H](Cc3ccc(F)cc3)C(=O)N(C)CC(=O)N[C@@H](CCc3cc(F)c(Cl)c(F)c3)C(=O)N2C1 | B (a compound having 3 or more and less than 10 is denoted as B)
15 | CCO[C@@H]1C[C@H]2C(=O)NC3(CCC3)C(=O)N(C)[C@@H](C(CC)CC)C(=O)N(C)[C@H](C(=O)N(C)C)CC(=O)N(C)[C@@H](CC3CC3)C(=O)N[C@@H]([C@@H](C)CC)C(=O)N(C)CC(=O)N(C)[C@H]3C/C=C\CCN(C3=O)[C@@H](Cc3ccc(C(F)(F)F)cc3)C(=O)N(C)CC(=O)N[C@@H](CCc3ccc4sccc4c3)C(=O)N2C1 | A (a compound having 10 or more and less than 20 is denoted as A)
16 | CCO[C@@H]1C[C@H]2C(=O)NC3(CCC3)C(=O)N(C)[C@@H](C3CCCC3)C(=O)N(C)[C@H](C(=O)N(C)C)CC(=O)N(C)[C@@H](CC(C)C)C(=O)N[C@@H]([C@@H](C)CC)C(=O)N(C)CC(=O)N(C)[C@H]3C/C=C\CCN(C3=O)[C@@H](Cc3ccc(C(F)(F)F)cc3)C(=O)N(C)CC(=O)N[C@@H](CCc3ccc4sccc4c3)C(=O)N2C1 | A (a compound having 10 or more and less than 20 is denoted as A)
17 | CCO[C@@H]1C[C@H]2C(=O)NC3(CCC3)C(=O)N(C)[C@@H](C3CCCC3)C(=O)N(C)[C@H](C(=O)N(C)C)CC(=O)N(C)[C@@H](CC)C(=O)N[C@@H]([C@@H](C)CC)C(=O)N(C)CC(=O)N(C)[C@H]3C/C=C\CCN(C3=O)[C@@H](Cc3ccc(C(F)(F)F)cc3)C(=O)N(C)CC(=O)N[C@@H](CCc3cc(F)c(Cl)c(F)c3)C(=O)N2C1 | B (a compound having 3 or more and less than 10 is denoted as B)
18 | CCO[C@@H]1C[C@H]2C(=O)NC3(CCC3)C(=O)N(C)[C@@H](C3CCCC3)C(=O)N(C)[C@H](C(=O)N(C)C)CC(=O)N(C)[C@@H](CC3CC3)C(=O)N[C@@H]([C@@H](C)CC)C(=O)N(C)CC(=O)N(C)[C@H]3C/C=C\CCN(C3=O)[C@@H](Cc3ccc(F)cc3)C(=O)N(C)CC(=O)N[C@@H](CCc3ccc4sccc4c3)C(=O)N2C1 | B (a compound having 3 or more and less than 10 is denoted as B)
19 | CCO[C@@H]1C[C@H]2C(=O)NC3(CCC3)C(=O)N(C)[C@@H](C3CCCC3)C(=O)N(C)[C@H](C(=O)N3CCOCC3)CC(=O)N(C)[C@@H](CCOC)C(=O)N[C@@H]([C@@H](C)CC)C(=O)N(C)CC(=O)N(C)[C@H]3CCCCCN(C3=O)[C@@H](Cc3ccc(F)cc3)C(=O)N(C)CC(=O)N[C@@H](CCc3cc(F)c(C(F)(F)F)c(F)c3)C(=O)N2C1 | B (a compound having 3 or more and less than 10 is denoted as B)
20 | CC[C@H](C)[C@@H]1NC(=O)[C@H](CC2CC2)N(C)C(=O)C[C@@H](C(=O)N(C)C)N(C)C(=O)[C@H](C2CCCC2)N(C)C(=O)C2(CCC2)NC(=O)[C@H](CC(F)F)N(C)C(=O)[C@H](CCc2cc(F)c(C(F)(F)F)c(F)c2)NC(=O)CN(C)C(=O)[C@H](Cc2ccc(C(F)(F)F)cc2)N2CC/C=C\C[C@@H](C2=O)N(C)C(=O)CN(C)C1=O | A (a compound having 10 or more and less than 20 is denoted as A)
21 | CCCCCCC1C(=O)NC(C(C)CC)C(=O)N(C)CC(=O)N(C)C2CC=CCCN(C2=O)C(Cc2ccc(C(F)(F)F)cc2)C(=O)N(C)CC(=O)NC(CCc2ccc3sccc3c2)C(=O)N2CC(OCC)CC2C(=O)NC2(CCC2)C(=O)N(C)C(C(CC)CC)C(=O)N(C)C(C(=O)N(C)C)CC(=O)N1C (stereo not shown) | A (a compound having 10 or more and less than 20 is denoted as A)
22 | CCCOC[C@H]1C(=O)N[C@@H]([C@@H](C)CC)C(=O)N(C)CC(=O)N(C)[C@H]2C/C=C\CCN(C2=O)[C@@H](Cc2ccc(C(F)(F)F)cc2)C(=O)N(C)CC(=O)N[C@@H](CCc2cc(F)c(C(F)(F)F)c(F)c2)C(=O)N2C[C@H](OCC)C[C@H]2C(=O)NC2(CCC2)C(=O)N(C)[C@@H](C2CCCC2)C(=O)N(C)[C@H](C(=O)N(C)C)CC(=O)N1C | B (a compound having 3 or more and less than 10 is denoted as B)
